Values quoted from earlier work in patent publication US20070016968A1, “Treatment of pain through expression of opioid receptors” (priority 2003, published 2007).

Columns and labels:
MOR-1 knockout mouse = MOR-1 knockout mouse (Matthes et al 1996)
[1] = test system: MOR-1 knockout mice (exon-1); settings: disruption in exon-1 (Schuller et al 1999)

**Q.** With CN1CC[C@]23c4c5ccc(O)c4O[C@H]2[C@@H](O)C=C[C@H]3[C@H]1C5 [morphine] as the compound, how does the “response to morphine (pain relief, reinforcement, dependence)” value (MOR-1 knockout mouse) read?
**A.** does not respond to morphine

**Q.** What about the antinociception [1] of the same compound?
**A.** not

**Q.** For CN1CC[C@]23c4c5ccc(O)c4O[C@H]2[C@@H](O[C@@H]2O[C@H](C(=O)O)[C@@H](O)[C@H](O)[C@H]2O)C=C[C@H]3[C@H]1C5 [morphine-6b-glucuronide], which antinociception [1] is on record?
**A.** still produce antinociception
